Where “and” joins values, the source holds several entries; their conditions need not be identical. Identical values can stand only once.
Molecular target: FADD (human (endogenous in SKW6.4)) (UniProt Q13158)
Experiment: affinity purification with mass spectrometry; anti-CD95 DISC IP from 5x10^7 SKW6.4 cells stimulated with 1 ug/mL LZ-CD95L; 1D-PAGE, in-gel trypsin digestion, 50 fmol of each heavy AQUA peptide spiked in, nanoLC-ESI-MS/MS on LTQ Orbitrap; amounts summed over gel slices; six replicate IPs

Question: With “cellular FLICE inhibitory protein (c-FLIP) (from UniProt O15519 1-480) (natural protein; other documents disagree on this pair)” as the substance, how does the stoichiometry N read?
Answer: 0.1 and 0.3
